Here are results for one compound from article PMC6445123 (Scientific Reports, 2019).

Sequences of proteins named here, by UniProt entry; tags and fusion partners are left off. A change or cut given only in a name is not applied to a line headed by its entry. A line that says so, or that is headed by a name, gives the form on record, which may keep a tag or linker. Residues count along the entry.
UniProt P55212, 194-293 limits assumed: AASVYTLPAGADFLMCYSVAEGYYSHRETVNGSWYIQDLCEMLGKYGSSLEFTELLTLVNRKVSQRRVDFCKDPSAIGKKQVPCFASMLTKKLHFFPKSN
UniProt P55212, 24-193 with tags or gaps with the stated changes limits assumed: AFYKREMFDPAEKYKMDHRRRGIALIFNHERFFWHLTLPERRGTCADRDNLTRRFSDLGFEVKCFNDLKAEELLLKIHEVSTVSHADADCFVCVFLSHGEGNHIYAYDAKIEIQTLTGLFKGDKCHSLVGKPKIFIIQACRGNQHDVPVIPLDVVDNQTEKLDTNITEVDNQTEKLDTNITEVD

For experiment [1], the target named is T1, active Casp6 (Casp6-WT) (Homo sapiens, UniProt P55212, INS179NQTEKLDTNITEVD). The experiment in a line: Fluorescence-based Ac-VEID-AFC cleavage assay (Casp6 activity, IC50 determination). As for the experimental part: (§1) To assess the potency of in silico hits, a fluorescence-based Ac-VEID-AFC cleavage assay was used to measure recombinant active Casp6 reaction rate in the absence or presence of 100 µM concentration of compounds. A 30% inhibition cut off was arbitrarily chosen for further investigation of putative inhibitors. […] AFC signal interference by compound intrinsic fluorescence was ruled out (Fig. S4). Casp6 inhibition was confirmed for seven compounds (C7, C13, C14, S2, S10, S11 and S13) using a colorimetric Ac-VEID-pNA cleavage assay (Table 2, Fig. S3). […] The hits had IC50 values ranging from 13.2 µM to 289 µM (Table 2).
Casp6 active sites were quantified using zVAD-FMK (N-benzyloxycarbonyl-Val-Ala-Asp-(O-methyl)-fluoromethylketone, MP Biomedicals, Santa Ana, CA, USA)[51],[64]. Casp6 activity was measured in Stennicke’s buffer (SB: 20 mM piperazine-N,N′-bis-(2-ethanesulfonic acid) pH 7.2, 100 mM NaCl, 10 mM DTT, 1 mM EDTA, 0.1% 3-[(3-cholamidopropyl)-dimethylammonio]-2-hydroxy-1-propanesulfonic acid, 10% sucrose)[65] using 40 µM Ac-VEID-AFC (Ac-Val-Glu-Ile-Asp-7-Amino-4-trifluoromethylcoumarin, Enzo Life Sciences, Farmingdale, NY, USA)[64] and 10-250 nM active site titrated Casp6. Reactions were initiated by Ac-VEID-AFC addition and followed for 20 min at 37 °C in a black clear bottom 96-well microplate (Costar, Corning, NY, USA) in Synergy H4 Hybrid instrument (BioTek, Winooski, VT, USA) with excitation/emission at 380/505 nm. Released AFC was calculated from AFC standard curve (0-25 µM). Casp6 VEIDase activity (released pmol AFC/min) was calculated from the initial linear reaction part. Ac-VEID-AFC hydrolysis initial velocities were measured with 10 nM active-site titrated Casp6 and […] Ac-VEID-AFC. Initial velocities v versus substrate concentration [S] were fit to a rectangular hyperbola using Michaelis-Menten equation in GraphPad Prism 5 (GraphPad Software, La Jolla, CA, USA).
(§2) In fluorescence-based Casp6 activity assay, 10 µM Ac-VEID-AFC was added to 20 nM Casp6 in SB with 100 μM compound and 1% dimethyl sulfoxide (DMSO), and reaction rate was measured for 20 min at 37 °C as above. Compound potency was calculated by normalising Ac-VEID-AFC cleavage rate to 1% DMSO control. In colorimetric Casp6 activity assay, 200 µM Ac-VEID-pNA (N-acetyl-Val-Glu-Ile-Asp-p-nitroanilide, Enzo Life Sciences) was added to 200 nM Casp6 in SB with 100 μM compound, and Ac-VEID-pNA cleavage rate was measured at 37 °C for 30 min in clear 96-well plate (Sartstedt, Nümbrecht, Germany) using Synergy H4 plate reader at 405 nm. Absorbance was converted to the released pNA amount based on a standard curve of 0–250 µM pNA. Cleavage rates were calculated from the linear assay phase and were normalised to 1% DMSO control. In Casp6-C163A cleavage assay, 0.5 ng/µl Casp6-WT was preincubated with 100 µM inhibitor, 5 µM Q-VD-OPh or 1% DMSO in SB (30 min, RT), followed by transfer on ice, addition of 0.5 µg/µl Casp6-C163A, and incubation (37 °C, 5, 10 and 15 min). Reactions were stopped by adding SDS-PAGE sample buffer (62.5 mM Tris pH 6.8, 2% SDS, 0.1 M DTT, 0.01% Bromphenol Blue, 10% glycerol) and heating (5 min, 95 °C). Samples (2 µl) were analysed on 15% SDS-PAGE gels, proteins were stained with Coomassie blue, and gels were de-stained with 10% acetic acid. The intensities of protein bands were quantified from scanned gels using ImageJ. The band intensity of Casp6-C163A without a prodomain was plotted against the time and the Casp6-C163A cleavage rates were calculated from the slopes of linear plots. The % activity of Casp6-WT in the presence of inhibitors was calculated relative to DMSO control.
IC50 values were determined against 20 nM Casp6 active sites in fluorescence-based Casp6 activity assay with 10 µM Ac-VEID-AFC and 1 nM-500 µM inhibitor. […]

Experiment [2] has as its target T1, active Casp6 (Casp6-WT). As to the kind of experiment: Casp6-C163A cleavage assay (prodomain cleavage of catalytically inactive Casp6-C163A by active Casp6). Conditions: rate of Casp6-C163A prodomain cleavage vs DMSO control. How it is done: as §1, §2
For experiment [3], the target named is T2, Casp6 (Homo sapiens, UniProt P55212, INS179NQTEKLDTNITEVD). As to the kind of experiment: Determination of inhibition mechanism and Ki (Michaelis-Menten, Lineweaver-Burk plots). As for the experimental part:
The inhibition of Casp6 activity with S10G and C13 was reversible (Fig. S5). To determine mode of inhibition, kinetic analyses were conducted on Casp6 using S10G and C13 (Fig. 4a). In the Lineweaver-Burk plot, lines of best fit converged at a single point above the x-axis and left from the y-axis, which is characteristic of noncompetitive inhibition[54] (Fig. 4b). The dissociation constant (Ki) of S10G was 1.8 µM, which was approximately 3-fold lower than C13 (Ki = 5.3 µM) (Fig. 4c).
Compounds, S10G (2.5 µM, 4.2 µM, 10 µM), and C13 (5 µM, 14 µM, 50 µM), were added to 20 nM active site titrated Casp6 and enzyme activity was measured with eight different Ac-VEID-AFC substrate concentrations (5.0 μM–200 μM) using fluorescence-based Casp6 activity assay as above. The apparent KM and Vmax values were determined through nonlinear regression analysis of Michaelis-Menten plots (v vs. [S]) using GraphPad Prism 5. The inhibition mode was determined from the pattern of converging Lineweaver-Burk plots (1/v vs. 1/[S])[54]. The dissociation constant (Ki) for Casp6-inhibitor complex was determined from the x-axis intercept (which is equal to −Ki) in the plot of Lineweaver-Burk slopes vs. inhibitor concentration. Alternatively, inhibition model and Ki were determined by global fit of kinetic data to the competitive, noncompetitive, noncompetitive (mixed) or uncompetitive inhibition models using respective equations in GraphPad Prism 5. IC50 curves for S10G and C13 against Casp6 were generated using the fluorescence-based activity assay with 5–75 µM Ac-VEID-AFC.

Experiment [4] has as its target T2, Casp6. The experiment in a line: Reversibility of Casp6 inhibition (pre-incubation at 10-fold IC50, rapid 100-fold dilution). Conditions: recovery of activity after 60 min pre-incubation and 100-fold dilution. How it is done: Supplementary Figure S5. Mechanism of Casp6 inhibition with C13 and S10G. (a) Inhibition of Casp6 with C13 (left panel) and S10G (right panel) is reversible. The recovery of Casp6 activity after 60 min pre-incubation with C13 and S10G at a concentration of inhibitor equal to 10-fold the IC50 value followed by a rapid 100-fold […]
(1 picture or pasted object on this page, not shown here) […]
dilution into Casp6 activity assay solution. The control samples DMSO and Q-VD-OPh were pre-incubated and diluted in the absence of inhibitor, and in the presence of an irreversible inhibitor Q-VD-OPh, respectively. Data points represent mean ± standard error of the mean (SEM) from three independent experiments. (b) Coomassie stain of SDS-PAGE of purified recombinant WT -, L200A-, and K284A-Casp6 (left panel) expressed from a full -length Casp6 encoding construct (Fig. 1c ), and copurified LS and SS of WT -, L200A-, and K284A-LS-SS-Casp6 (right panel). FL (full-length Casp6), ΔCasp6 (Casp6 without a prodomain), LS-L (large subunit with linker), LS (large subunit), and SS (small subunit) depict different bands of Casp6. (c) Michaelis-Menten kinetic plots (top panel) and calculated KM and Vmax values (bottom panel) for Casp6-WT-LS-SS (left panel), Casp6-L200A-LS-SS (middle panel), and Casp6-K284A-LS-SS (right panel) enzymatic activity in presence of 1% DMSO (0 µM C13) or increasing doses of C13. […]

For the compound `O=C(Cn1cc(C=C2C(=O)NC(=O)N(Cc3ccco3)C2=O)c2ccccc21)NCc1ccco1`, the “% Inhibition with 100 µM compound (fluorescence assay)” value in experiment [1] (100 µM compound, 10 µM Ac-VEID-AFC, 20 nM Casp6, relative to 1% DMSO control) is 98.6 ± 2.4%. Moreover, the “fold lower IC50 than S10” value in experiment [1] (compared with IC50 of S10 (30.2 µM)) was ~ 3.8 fold. Further, the IC50 – broadly, the midpoint of a concentration-inhibition curve – in experiment [1] (fluorescence assay, 20 nM Casp6 active sites, 10 µM Ac-VEID-AFC) amounted to 4.2 µM. In addition, the “% Inhibition with 100 µM compound (Casp6-C163A cleavage assay)” value in experiment [2] amounted to 99.1 ± 1.5%. For the same compound, the “fold lower Ki than C13” value in experiment [3] is “approximately 3 fold”. Also, the mode of inhibition result in experiment [3] (Lineweaver-Burk plot pattern) is “noncompetitive inhibition”. The Ki (usually the equilibrium dissociation constant of an inhibitor or competing ligand from its target) in experiment [3] (read-out: Ki (dissociation constant), from plot of Lineweaver-Burk slopes vs inhibitor concentration, Casp6, Ac-VEID-AFC) stood at 1.8 µM. The “reversibility of Casp6 inhibition” value in experiment [4] is reported as “reversible”.
